Patent publication US20050014788A1, “Piperidine derivatives and their use as modulators of chemokine receptor activity (especially ccr5)” (priority 2001, published 2005)

Sequences of proteins named here, by UniProt entry; tags and fusion partners are left off.
UniProt P51681, whole entry: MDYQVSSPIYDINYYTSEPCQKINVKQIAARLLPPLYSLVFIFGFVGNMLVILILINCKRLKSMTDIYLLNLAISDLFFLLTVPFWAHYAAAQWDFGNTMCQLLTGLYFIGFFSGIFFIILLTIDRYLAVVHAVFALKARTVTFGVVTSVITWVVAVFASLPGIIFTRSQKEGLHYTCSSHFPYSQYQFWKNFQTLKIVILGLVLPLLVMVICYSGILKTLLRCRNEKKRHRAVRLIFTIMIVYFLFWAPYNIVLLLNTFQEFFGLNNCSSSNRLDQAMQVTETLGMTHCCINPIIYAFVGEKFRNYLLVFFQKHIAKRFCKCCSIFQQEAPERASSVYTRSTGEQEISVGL

Molecular target: recombinant human CCR5 receptor (Homo sapiens, UniProt P51681)
Assay: MIP-1α radioligand binding assay (scintillation proximity), CHO cell membranes
Settings: Pic50, negative log (base 10) of IC50 (M); displacement of 0.1 nM iodinated MIP-1α; CHO membranes with recombinant human CCR5; average if tested more than once

CCN(C(=O)Cc1ccc(S(C)(=O)=O)cc1)C1CCN(CC[C@@H](c2ccc(F)cc2)c2ccc(S(C)(=O)=O)cc2)CC1 [Compound No. 52]
IC50: 4.57e-08 M
